Values of other authors, collected in patent EP4834326A1, “SOLUTION-TYPE QUETIAPINE COMPOSITION FOR TRANSNASAL ADMINISTRATION AND USE THEREOF” (dated 2026).

Details: oral

## OCCOCCN1CCN(C2=Nc3ccccc3Sc3ccccc32)CC1
  bioavailability: about 10%
